Experimental data reported in patent US20140148442A1, “FAST-DISSOLVE DOSAGE FORMS OF 5-HT2C AGONISTS” (Arena Pharmaceuticals, Inc., priority 2010, published 2014).

Test: Aqueous solubility (UPLC or visual) and final pH

(R)-8-chloro-1-methyl-2,3,4,5-tetrahydro-1H-3-benzazepine hemisulfate salt hydrate
Solubility in water per USP categorization: very soluble (<1 mL water needed to dissolve 1 g)
